Measured values as given in US20090246276A1, “Pharmaceutical Compositions” (priority 2008, published 2009).

Row | Structure (SMILES) | % Released (Example 1 tablet, 0.1N HCl, 15 hr) | % Released (Example 1 tablet, 0.1N HCl, 16 hr) | % Released (Example 2 tablet, 0.1N HCl, 16 hr) | % Released (Example 2 tablet, pH 4.5 acetate buffer, 12 hr) | % Released (Example 3 tablet, 0.1N HCl, 8 hr) | % Released (Example 3 tablet, pH 4.5 acetate buffer, 16 hr) | % Released (Example 10 tablet, 0.1N HCl, 12 hr) | % Released (Example 11 tablet, 0.1N HCl, 16 hr) | % Released (Example 17 tablet, 0.1N HCl, 12 hr) | % Released (Example 18 tablet, 0.1N HCl, 8 hr)
1 | CC(NC(C)(C)C)C(=O)c1cccc(Cl)c1 (stereo not shown) [Bupropion HBr, bupropion hydrobromide] | 102% | 102% | 102% | 102% | 102% | 102% | 102% | 102% | 102% | 
2 | CC(NC(C)(C)C)C(=O)c1cccc(Cl)c1 (stereo not shown) [Bupropion HCl, bupropion hydrochloride] |  |  |  |  |  |  |  |  |  | 101.69%

Structures can show the parent of a compound that is named as a salt. Where two headings read alike, the source gives them in different places.
